# From ChEMBL document CHEMBL2331221, “Potent elastase inhibitors from cyanobacteria: structural basis and mechanisms mediating cytoprotective and anti-inflammatory effects in bronchial epithelial cells” (J Med Chem, 2013)
# pIC50: −log10 of the molar value.
# Target: T1, Neutrophil elastase (Homo sapiens, UniProt P08246)
# T1 sequence (P08246 whole entry): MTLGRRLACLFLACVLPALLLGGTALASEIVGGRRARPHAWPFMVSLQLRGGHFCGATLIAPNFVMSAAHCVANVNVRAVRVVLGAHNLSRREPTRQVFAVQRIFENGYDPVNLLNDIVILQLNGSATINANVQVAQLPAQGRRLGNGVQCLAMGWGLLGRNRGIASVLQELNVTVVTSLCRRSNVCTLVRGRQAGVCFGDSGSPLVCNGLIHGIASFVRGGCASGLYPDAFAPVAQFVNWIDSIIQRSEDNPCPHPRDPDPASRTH
# Assay: Inhibition of human neutrophil elastase assessed as proteolysis using N-(methoxysuccinyl)-Ala-Ala-Pro-Val-p-nitroanilide substrate incubated for 15 mins prior to substrate addition measured every 30 seconds
smiles,measurement,value
CC(C)(C)C(=O)Oc1ccc(S(=O)(=O)Nc2ccccc2C(=O)NCC(=O)O)cc1,pIC50,6.87
